{
  "source": "paper PMC11684019",
  "about": "“Unveiling the Antimycobacterial Potential of Novel 4-Alkoxyquinolines: Insights into Selectivity, Mechanism of Action, and In Vivo Exposure” (Journal of Medicinal Chemistry, 2024)",
  "experiment": "Aqueous solubility (UHPLC-DAD)",
  "conditions": "25 °C, 4 h",
  "data": [
    {"substance": "4-Iodo-N-(3-((6-methoxy-2-methylquinolin-4-yl)oxy)propyl)aniline [8e]", "values": [
      {"measurement": "Solubility pH 1.2", "setting": "0.1 M HCl solution", "result": ">2,230 μM"},
      {"measurement": "Solubility pH 9.1", "setting": "0.1 M NH4HCO3 solution", "result": 2.49, "unit": "μM"},
      {"measurement": "Solubility pH 7.4", "setting": "PBS", "result": 2.9, "unit": "μM"}
    ]}
  ]
}
